Compounds with a hit are over-represented: about 1.3% of the library has one in this group of screens.
Yeast UUG start – yeast start codon fidelity modulation; actives 0.13% (n = 350,000); activity score, % at 18.7 µM; S. cerevisiae UUG-firefly luciferase reporter, luminescence/redox ratio;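 active = replicate mean at a twofold rise or more, about +100% in these data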;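 note: firefly luciferase made from a UUG start codon reports start codon fidelity; reporter light over untreated wells divided by growth signal over untreated wells; some hits fall short of that in this replicate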
ARNT-TACC3 inh – disrupts binding between human ARNT and TACC3. Q9Y6A5. AlphaScreen His-ARNT PAS-B/GST-TACC3 binding, luminescence; TACC3 fragment carries E629A point mutation. inhibition, % at 9.99 µM. 390,000 tested, 0.66% active. AID 623870;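 active = mean inhibition of replicates at least 50% and at least half of replicates each reaching 50%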;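 note: 0% = complete ARNT plus TACC3 wells and 100% = ARNT alone without TACC3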
S100A4 MyoIIA – S100A4-myosin IIA interaction inhibition; P26447; S100A4/TAMRA-MyoIIA peptide fluorescence polarization; inhibition, % at 10.7 µM; 360,000 tested, 0.14% active; AID 652163;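 active = mean inhibition of at least 70% across replicates, with every replicate also reaching that level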
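Test system: S100A4 monomer protein; Medium: HEPES pH 7.2 with CaCl2, KCl, NaCl, DTT, Triton; Probe or stimulus: TAMRA-labelled myosin IIA heavy-chain peptide probe, 5 nM; Doses: one dose per compound; Times: polarization read 5 min after assay mix addition, stable 5–60 min; Benchmarks: neutral control DMSO, positive control TFP.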
ERAP1 inh – blocks human ERAP1 aminopeptidase activity; Q9NZ08; AID 652197; recombinant ERAP1, Leu-AMC fluorescence, 60 min; 340,000 tested, 0.15% active; inhibition, % at 10.7 µM;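 active = mean replicate inhibition of at least 30%, or all replicates individually reaching that 30% level; inactive = mean below 30% and not every replicate reaching it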;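 note: 0% = neutral control wells and 100% = L-leucinethiol positive control wells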
MLL AF4-AF9 inh – inhibitors of human MLL-AF4/AF9 interaction. AlphaScreen, biotin-AF4 peptide binding to FLAG-AF9. P42568. inhibition, % at 10 µM. 350,000 tested, 0.47% active;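 active = every replicate reaching a set inhibition limit, whatever the replicate mean, cut at about 25% in these data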;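 note: 0% = plate neutral control median and 100% = total signal loss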
E-sel inducer – induces E-selectin expression in human endothelial cells. 260,000 tested, 0.37% active. HUVEC E-selectin immunofluorescence imaging; normalized: neutral wells 0, TNF-alpha wells 100. activation, % at 7.58 µM. AID 686992;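 active = mean E-selectin-positive cell signal at least 10% of the positive control, reached in at least 60% of replicates, without over 20% cell loss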
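assay system = HUVEC, human umbilical vein endothelial cells | input = 3,000 HUVEC seeded per well | medium = EGM-2 growth medium on 0.1% gelatin-coated wells | dosing = one compound dose added by pin transfer | signal = immunofluorescence imaging | read-out basis = % PE-positive cells | control set = TNF-alpha, DMSO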
The depositor's hits bear a star; . = no result.

(1) Cc1nnc2sc(SCC(=O)Nc3nccs3)nn2c1=O
(2) O=C(CSc1ccc2nnc(-c3ccccn3)n2n1)Nc1ccccc1
(3) COc1ccccc1NC(=O)CSc1ccc2nnc(-c3cccnc3)n2n1
(4) O=C(CSc1ccc2nnc(-c3ccccn3)n2n1)Nc1nccs1
(5) CCOc1ccccc1NC(=O)CSc1ccc2nnc(-c3cccnc3)n2n1
(6) CCOc1ccc(NC(=O)CSc2ccc3nnc(-c4ccccn4)n3n2)cc1
(7) C[C@@H]1CN([C@@H](C)CO)C(=O)c2cc(-c3cncnc3)cnc2O[C@@H]1CN(C)C(=O)Cc1cccnc1
(8) O=C(N[C@@H]1CC[C@H](CCn2cc(C3CCCCC3)nn2)O[C@H]1CO)c1cccnc1
assay / compound	1	2	3	4	5	6	7	8
Yeast UUG start	-6	-29	-19	-36	.	-34	3	3
ARNT-TACC3 inh	76*	47*	71*	60*	33	11	-8	4
S100A4 MyoIIA	.	-2	-4	-5	0	-2	-10	2
ERAP1 inh	.	1	-2	0	5	5	-7	0
MLL AF4-AF9 inh	.	0	5	2	-1	-1	-8	-6
E-sel inducer	.	0	0	3	0	0	0	0

The last 2 entries of the part before open the next one:
(7) C[C@@H]1CN([C@@H](C)CO)C(=O)c2cc(-c3cncnc3)cnc2O[C@@H]1CN(C)C(=O)Cc1cccnc1
(8) O=C(N[C@@H]1CC[C@H](CCn2cc(C3CCCCC3)nn2)O[C@H]1CO)c1cccnc1
(9) O=C(CSc1ccc2nnc(-c3ccccn3)n2n1)Nc1ccccc1C(F)(F)F
(10) COC(=O)c1ccc(CSc2ccc3nnc(-c4ccccn4)n3n2)o1
(11) COC(=O)c1ccc(CSc2ccc3nnc(-c4ccc(F)cc4)n3n2)o1
(12) CN1c2ccc(Br)cc2[C@@H]2[C@@H](CCN2C(=O)Nc2cccc(F)c2)[C@@H]1CO
(13) CCNC(=O)C[C@H]1CC[C@H]2[C@H](COc3ccc(NC(=O)Nc4cccc(F)c4)cc3C(=O)N2C)O1
(14) COC(=O)C[C@@H]1CC[C@@H]2[C@@H](COc3ccc(NC(=O)NCc4ccccc4)cc3C(=O)N2C)O1
(15) Cc1cc(Br)ccc1NC(=O)CN(C)C(=O)Cn1c(=O)cnc2ccccc21
(16) CN(CC(=O)Nc1cccc(F)c1)C(=O)Cn1c(=O)cnc2ccccc21
assay / compound	7	8	9	10	11	12	13	14	15	16
Yeast UUG start	3	3	-17	-10	.	-4	1	9	-6	.
ARNT-TACC3 inh	-8	4	52*	58*	.	1	-3	1	1	2
S100A4 MyoIIA	-10	2	-3	-3	-3	.	-7	.	0	5
ERAP1 inh	-7	0	3	.	-2	.	1	.	38*	-10
MLL AF4-AF9 inh	-8	-6	-2	3	0	.	2	.	1	29*
E-sel inducer	0	0	-3	0	0	0	0	0	0	0

(17) CN(CC(=O)Nc1ccc(OC(F)(F)F)cc1)C(=O)Cn1c(=O)cnc2ccccc21
(18) CNC[C@@H]1Oc2c(NC(=O)Nc3ccc(F)cc3)cccc2C(=O)N([C@H](C)CO)C[C@H]1C
(19) CNC[C@H]1Oc2c(NC(=O)Nc3ccc(C(F)(F)F)cc3)cccc2C(=O)N([C@@H](C)CO)C[C@H]1C
(20) C[C@H](NC(=O)c1[nH]cnc1C(=O)Nc1ccccc1)C(=O)OC(C)(C)C
(21) Cc1ccc(NC(=O)c2nc[nH]c2C(=O)N[C@@H](C)C(=O)OC(C)(C)C)cc1
(22) CN1CCN(c2ccc(-c3cc(NC=O)c4ncc(-c5ccc(F)cc5)n4c3)cc2)CC1
(23) COc1cc(-c2cnc3c(NC=O)cc(-c4ccc(N5CCN(C)CC5)cc4)cn23)cc(OC)c1OC
(24) O=C(c1ccc2c(c1)OCO2)N1CC(=O)N2[C@H](C1)[C@H](c1ccc(C#CCC3CCCC3)cc1)[C@@H]2CO
assay / compound	17	18	19	20	21	22	23	24
Yeast UUG start	-7	-5	12	-7	-18	-11	-37	.
ARNT-TACC3 inh	.	-1	-2	2	1	.	.	.
S100A4 MyoIIA	-3	2	93*	1	-1	-4	-3	-2
ERAP1 inh	-3	-8	0	.	.	0	-5	0
MLL AF4-AF9 inh	0	-1	5	47*	-1	38*	18	2
E-sel inducer	.	131*	.	0	0	1	1	-1

(25) CCN(CC)C(=O)[C@H]1C[C@H](CC(=O)NCCCN(C)C)C(=O)N2CCc3c([nH]c4cc(-c5ccco5)ccc34)[C@]12C
(26) CC(C)N(C(=O)[C@H]1C[C@H](CC(=O)NCCCN(C)C)C(=O)N2CCc3c([nH]c4cc(-c5ccco5)ccc34)[C@]12C)C(C)C
(27) CN(C)CCCNC(=O)C[C@H]1C[C@H](C(=O)N2CCOCC2)[C@@]2(CCC3CCCC3)c3[nH]c4cc(-c5ccco5)ccc4c3CCN2C1=O
(28) C[C@@H]1CCCCO[C@@H](CN(C)Cc2ccc3c(c2)OCO3)[C@@H](C)CN([C@@H](C)CO)C(=O)c2cc(NC(=O)CCCN(C)C)ccc2O1
(29) O=C(CN1CCOCC1)N[C@H]1CC[C@@H](CCNS(=O)(=O)c2ccccc2F)O[C@@H]1CO
(30) COc1ccc(NC(=O)C2CCN(S(=O)(=O)c3cccc4nonc34)CC2)cc1OC
(31) Cc1ccc(-n2cc(CN3CCN(Cc4nccn4C)CC3)c(-c3cccc(C)c3)n2)cc1
(32) O=C(C[C@H]1C[C@H]2c3cc(NC(=O)C4CCC4)ccc3O[C@H]2[C@@H](CO)O1)NCc1ccncc1
assay / compound	25	26	27	28	29	30	31	32
Yeast UUG start	-7	7	17	7	3	-22	-3	-8
ARNT-TACC3 inh	9	12	18	12	.	-8	-23	0
S100A4 MyoIIA	-2	-4	0	17	.	1	3	-34
ERAP1 inh	-3	3	.	2	.	-5	5	1
MLL AF4-AF9 inh	20	29*	41*	7	0	26*	29*	-2
E-sel inducer	0	0	0	0	-1	.	7	0

ERAP1 inh: what is marked active above
entry | compound | Yeast UUG start | ARNT-TACC3 inh | S100A4 MyoIIA | ERAP1 inh | MLL AF4-AF9 inh
15 | Cc1cc(Br)ccc1NC(=O)CN(C)C(=O)Cn1c(=O)cnc2ccccc21 | -6 | 1 | 0 | 38* | 1

(next part)
(33) CN1Cc2c(N3CCOCC3)nc3sc(C(=O)c4ccc(Br)cc4)c(N)c3c2CC1(C)C
(34) O=C(CCCCC(=O)NCCCc1ccccc1)NCCCc1ccccc1
(35) CC1NC(=O)NC1CCCCCC(=O)NCCc1ccccc1 (stereo not drawn)
(36) C[C@@H](NC(=O)C[C@H]1C[C@@H]2c3cc(NC(=O)C4CCC4)ccc3O[C@@H]2[C@H](CO)O1)c1ccccc1
(37) Cc1noc(C)c1NC(=O)Nc1ccc2c(c1)CC(=O)N([C@H](C)CO)C[C@@H](C)[C@H](CN(C)C(=O)Nc1ccc(F)cc1)O2
(38) C[C@@H]1CN([C@@H](C)CO)C(=O)Cc2cc(NC(=O)Cn3cnnn3)ccc2O[C@H]1CN(C)C(=O)Nc1ccc(C(F)(F)F)cc1
(39) C[C@H]1CN([C@@H](C)CO)C(=O)Cc2cc(NC(=O)Cn3cnnn3)ccc2O[C@H]1CN(C)C(=O)Nc1ccc(C(F)(F)F)cc1
(40) C[C@H]1CN([C@@H](C)CO)C(=O)Cc2cc(NC(=O)Nc3cccc4ccccc34)ccc2O[C@@H]1CN(C)C(=O)Nc1ccc(C(F)(F)F)cc1
(41) C[C@@H]1CN([C@@H](C)CO)C(=O)Cc2cc(NC(=O)Nc3ccc(F)cc3)ccc2O[C@H]1CN(C)C(=O)Nc1ccc(C(F)(F)F)cc1
assay / compound	33	34	35	36	37	38	39	40	41
Yeast UUG start	-9	-5	-5	.	12	25	-1	3	-6
ARNT-TACC3 inh	.	.	5	.	2	5	-1	-4	4
S100A4 MyoIIA	-1	4	1	-11	9	-10	-2	-5	.
ERAP1 inh	2	0	-3	1	-2	-3	1	1	.
MLL AF4-AF9 inh	30*	-1	77*	1	2	-1	-1	3	.
E-sel inducer	0	.	.	0	39*	415*	-7	55*	52*

From PubChem BioAssay
